# Ab-95 light chain CDR variants: yeast mating affinities

All variants were tested on one target, the spike HR2 peptide PDVDLGDISGINAS (SARS-CoV-2).

Parent: Ab-95, a human scFv built as VH, a 15-residue (Gly4Ser)3 linker, VL. Only the CDRs of the light chain vary.
VH: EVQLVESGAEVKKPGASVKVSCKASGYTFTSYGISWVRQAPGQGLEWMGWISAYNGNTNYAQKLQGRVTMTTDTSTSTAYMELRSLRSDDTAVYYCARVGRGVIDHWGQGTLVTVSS
VL: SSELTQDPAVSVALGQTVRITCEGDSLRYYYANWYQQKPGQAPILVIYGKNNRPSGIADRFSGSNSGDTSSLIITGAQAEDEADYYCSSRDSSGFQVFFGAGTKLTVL

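Library AAYL52 holds single substitutions and randomly drawn double and triple substitutions in the CDRs. The assay is AlphaSeq: two haploid yeast populations carry antibody and antigen on their surface. Binding brings cells together so that they mate, and sequencing counts the barcode pairs among the diploids. The ratio of observed to expected reads was calibrated, replicate by replicate, on BCL2-family standards whose Kd was known from biolayer interferometry. Mating was done three times.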

The parent's light chain CDRs are EGDSLRYYYAN, GKNNRPS, SSRDSSGFQVF; each variant's own CDRs replace them letter for letter.
Every variant below is changed at N33 of the VL (sequential numbering).
Values are apparent Kd, the geometric mean of the replicates that gave a signal; lower means stronger binding.
Where no diploid with the target was found in any replicate, the entry reads "no signal": below detection, most likely a poor binder, though not proof of it.

With EGDSLRYYYAP | GKNNRPS | SSRDSSGFQVF the result was 43 µM (2 of 3 replicates; controls 5 of 9). The variant EGDSLRYYMAS | GKNNRPS | SSRDSSGFVVF showed 15 µM (3 of 3 replicates; controls 6 of 9). The variant EGDSLRYYYAE | GKNHRPS | SSRDDSGFQVF gave 2.6 µM (2 of 3 replicates; controls 2 of 9). With EEDSLRYYYAW | GKNKRPS | SSRDSSGFQVF the result was no signal (0 of 3 replicates; controls 0 of 9). The variant EGDSLRYYYYT | GKNNRPS | SSRDSKGFQVF showed 15 µM (2 of 3 replicates; controls 4 of 9). For EGDSLRYYYAV | GVNYRPS | SSRDSSGFQVF, the assay gave 3.2 µM (1 of 3 replicates; controls 4 of 9).

For EGDSLHYYYAM | GKNNRPS | SSRDSSGFQVF, the assay gave no signal (0 of 3 replicates; controls 1 of 9). With EGDSLRYYYAF | GKNNRPS | SSRDSSGFQLE the result was 4.1 µM (1 of 3 replicates; controls 0 of 9). For EGFSLDYYYAL | GKNNRPS | SSRDSSGFQVF, the assay gave 180 nM (3 of 3 replicates; controls 3 of 9). The variant EGDALRYYYAW | MKNNRPS | SSRDSSGFQVF showed no signal (0 of 3 replicates; controls 2 of 9). The variant EGDSLRYYYAL | GKNNRPS | DSRDFSGFQVF showed 4.4 µM (2 of 3 replicates; controls 1 of 9). With EGDSLRYYYAD | GKNNRMS | SSRDSEGFQVF the result was 24 µM (2 of 3 replicates; controls 2 of 9).

The variant EGKSLRYYYAA | GKNNRPS | SSRDSSGFQVF gave 30 µM (2 of 3 replicates; controls 3 of 9). The variant EGASLRYYYAL | GKNNRPS | SSRDSSGFQVF showed no signal (0 of 3 replicates; controls 1 of 9). For EGDSLRYYYAL | GKNHRPS | SSRGSSGFQVF, the assay gave 19 µM (1 of 3 replicates; controls 2 of 9). For EGDSLRYYYAY | GKNNRRS | SSRDSSGFEVF, the assay gave 13 µM (2 of 3 replicates; controls 2 of 9). For EGDSLRYYYAS | GKNNPPS | SSKDSSGFQVF, the assay gave no signal (0 of 3 replicates; controls 1 of 9). The variant EGDSLRYYKAH | GKNNRPS | SSRDTSGFQVF showed 4.5 µM (2 of 3 replicates; controls 0 of 9).

The variant EGDSHRYYYAT | LKNNRPS | SSRDSSGFQVF showed no signal (0 of 3 replicates; controls 2 of 9). The variant EGDALRYYYAQ | GKNNRPS | SSRDSSGFKVF gave 30 µM (2 of 3 replicates; controls 7 of 9). The variant EGDSLRYYYAR | NKNNRPS | SSRDSSGFQWF gave 48 µM (1 of 3 replicates; controls 2 of 9).

Repeated from above, the 2 best binders with a signal in all replicates:

| CDR-L1 | CDR-L2 | CDR-L3 | Kd | replicates with signal | empty controls |
|---|---|---|---|---|---|
| EGFSLDYYYAL | GKNNRPS | SSRDSSGFQVF | 180 nM | 3/3 | 3/9 |
| EGDSLRYYMAS | GKNNRPS | SSRDSSGFVVF | 15 µM | 3/3 | 6/9 |

As a blank, each scFv also met three strains without target: over library AAYL52, 28% of these pairings were detected, typically at 8.2 µM and seldom below 800 nM. The control count says in how many pairings with the empty strains this scFv gave a signal.
In this assay the parent's reference entry averaged 200 nM; its copy inside this library read 180 nM.

Source: Engelhart et al. 2022 (doi:10.1038/s41597-022-01779-4), MIT Lincoln Laboratory and A-Alpha Bio; data file from the FLAb repository.